The target of the assay is Histamine H3 receptor (Rattus norvegicus, UniProt Q9QYN8). Put plainly: Binding affinity against rat histamine H3 receptor.

Protein sequences, listed by entry. Tags and fused reporters are not part of them. Lines headed by an entry give the natural chain unless they say otherwise; changes in a name come on top.
UniProt Q9QYN8: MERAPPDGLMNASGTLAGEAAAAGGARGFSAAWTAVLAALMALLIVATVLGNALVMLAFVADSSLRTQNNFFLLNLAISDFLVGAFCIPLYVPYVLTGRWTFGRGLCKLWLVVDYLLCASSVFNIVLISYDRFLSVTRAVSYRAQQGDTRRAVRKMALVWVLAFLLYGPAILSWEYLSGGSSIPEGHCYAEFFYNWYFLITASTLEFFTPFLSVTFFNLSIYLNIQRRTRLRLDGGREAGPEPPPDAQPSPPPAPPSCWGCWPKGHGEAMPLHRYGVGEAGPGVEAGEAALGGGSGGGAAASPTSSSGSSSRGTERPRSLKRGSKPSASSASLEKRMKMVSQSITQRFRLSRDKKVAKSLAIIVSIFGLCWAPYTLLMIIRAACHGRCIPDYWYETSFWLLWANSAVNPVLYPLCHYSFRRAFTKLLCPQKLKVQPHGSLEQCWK

The values below come from ChEMBL document CHEMBL1134928, “Synthesis and evaluation of potent pyrrolidine H(3) antagonists” (Bioorg Med Chem Lett, 2002).

In the case of `O=C(c1ccc(OCCCN2CC[C@H](NS(=O)(=O)c3ccccc3Cl)C2)cc1)C1CC1`, the Ki (in general, a measure of affinity in units of concentration, obtained from inhibition or displacement) is 3.7 nM.
